Laboratory results as given in patent publication US12435062B2, “Amide compounds and uses thereof” (HUTCHISON MEDIPHARMA LIMITED, priority 2020, dated 2025).

Test system: Ba/F3^BCR-FMS-11 cells
Assay: Cell proliferation experiment (Ba/F3^BCR-FMS-11, cckit-8)
Format: cell-based, mouse
Conditions: Ba/F3^BCR-FMS-11 cell proliferation, 72 hours
Method: Cell Proliferation Experiment
Ba/F3^BCR-FMS-11, mouse primary B lymphocytes stably expressing the BCR-FMS fusion gene. The cells were cultured in an RPMI 1640 medium containing 10% FBS.
2. Reagents and instruments
• cckit-8 kit: Dojindo, 9 CK04; • Envision: Perkin Elmer; • Cell culture plate: Facol, 9353027. 3. Experimental steps
The BCR-FMS fusion gene was transfected into Ba/F3 cells, and the cell line Ba/F3^BCR-FMS-11 that stably expresses BCR-FMS and grows depending on CSF-1R was screened. Ba/F3^BCR-FMS-11 cell proliferation experiments is completed by using the Cell Counting kit cckit-8 in a 96-well plate. In a 96-well plate, 5000/well of Ba/F3^BCR-FMS-11 cells were inoculated at 100 μL/well. […] 10 μL of the compound dilutions with the above 8 concentrations were added to the culture cell wells. The culture was incubated in a 37° C. and 5% CO2 cell incubator for 72 hours. […] The optical density absorption value at 450 nm of each well was detected by using Perkin Elmer Envision instrument.
wherein • Drug-treated well read-out: indicating the optical density signal of a cell well with the test compound treatment. • Cell well read-out: indicating the optical density signal of a cell well not treated with the test compound (only 0.5% DMSO). • Background read-out: indicating the optical density signal of a well with the cell medium. […]

Cn1cc(-c2cc(Oc3ccc(NC(=O)c4cnc5ccccn5c4=O)nc3)ccn2)cn1 [Compound 28]
IC50: 14 nM
